Literature values, collected in patent US5589337A (priority 1995, dated 1996).

Legend:
merR gene = settings: cited from earlier work
ada gene = settings: cited from earlier work

Molecule | merR gene response (merR gene) | ada gene expression induction (ada gene)
elemental mercury | responds | 
CN(N=O)C(=N)N[N+](=O)[O-] |  | induce ada gene expression
